Data as given in patent publication US7560479B2 (priority 2003, dated 2009).

Amino acid sequences for entries named in this document (tags omitted).
UniProt P10980, whole entry, looked up: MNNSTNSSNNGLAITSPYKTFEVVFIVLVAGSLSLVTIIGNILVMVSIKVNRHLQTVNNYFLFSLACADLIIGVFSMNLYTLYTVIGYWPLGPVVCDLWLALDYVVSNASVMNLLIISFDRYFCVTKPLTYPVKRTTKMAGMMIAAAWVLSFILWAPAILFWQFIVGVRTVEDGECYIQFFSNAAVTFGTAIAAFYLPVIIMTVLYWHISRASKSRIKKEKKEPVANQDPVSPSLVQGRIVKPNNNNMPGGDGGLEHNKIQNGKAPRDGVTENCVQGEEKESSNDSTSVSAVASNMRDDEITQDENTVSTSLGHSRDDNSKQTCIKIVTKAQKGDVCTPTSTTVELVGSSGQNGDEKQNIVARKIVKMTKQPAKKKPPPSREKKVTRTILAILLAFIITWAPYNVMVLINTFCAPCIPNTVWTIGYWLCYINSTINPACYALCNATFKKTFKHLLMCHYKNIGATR
UniProt P08483, whole entry, looked up: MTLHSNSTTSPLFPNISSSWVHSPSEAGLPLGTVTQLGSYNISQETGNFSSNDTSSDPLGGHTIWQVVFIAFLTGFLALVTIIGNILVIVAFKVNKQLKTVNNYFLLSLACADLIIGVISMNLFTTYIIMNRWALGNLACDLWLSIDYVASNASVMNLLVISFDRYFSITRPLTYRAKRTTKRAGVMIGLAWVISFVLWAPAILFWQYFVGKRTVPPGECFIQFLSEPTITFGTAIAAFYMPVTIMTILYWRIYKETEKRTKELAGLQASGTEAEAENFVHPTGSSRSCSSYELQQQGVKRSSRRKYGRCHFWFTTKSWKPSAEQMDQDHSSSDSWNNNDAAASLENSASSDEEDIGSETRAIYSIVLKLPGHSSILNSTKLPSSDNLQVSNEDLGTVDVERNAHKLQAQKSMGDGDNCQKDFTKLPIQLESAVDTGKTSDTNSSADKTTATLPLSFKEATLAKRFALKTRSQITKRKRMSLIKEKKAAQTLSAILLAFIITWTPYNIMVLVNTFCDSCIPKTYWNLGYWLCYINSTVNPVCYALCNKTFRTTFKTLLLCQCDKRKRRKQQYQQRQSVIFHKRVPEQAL

Assays:
[1] = biological target: M2 muscarinic receptor subtype (Rattus norvegicus, UniProt P10980); test: Radioligand binding assay, [3H]-N-methylscopolamine, rat heart membranes; conditions: [3H]NMS, Ki by Cheng & Prusoff
[2] = biological target: M3 muscarinic receptor subtype (Rattus norvegicus, UniProt P08483); conditions: rat submandibular gland membranes, [3H]NMS, Ki by Cheng & Prusoff
[3] = system: isolated rat bladder; conditions: rat bladder strips, antagonism of carbachol contraction, compound added 20 min prior to second CRC

## O=C(N[C@H]1[C@@H]2CN(Cc3ccccc3)C[C@@H]21)[C@](O)(c1ccccc1)C1CCC(F)(F)C1 (some centres unmarked)
[1]
  Receptor Binding Assay M2 (pki): 5.35
[2]
  Receptor Binding Assay M3 (pki): 6.86

## CC(C)=CCCN1CC2C(C1)C2NC(=O)C(O)(c1ccccc1)C1CCC(F)C1 (centres unmarked)
[1]
  Receptor Binding Assay M2 (pki): 4.9
[2]
  Receptor Binding Assay M3 (pki): 6
[3]
  Functional Assay pkB: 7.17

## CC(C)=CCCN1C[C@@H]2[C@H](C1)[C@H]2NC(=O)[C@@](O)(c1ccccc1)C1CCCC(F)(F)C1 (single isomer, unassigned)
[1]
  Receptor Binding Assay M2 (pki): 4.8
[2]
  Receptor Binding Assay M3 (pki): 6.2
[3]
  Functional Assay pkB: 6.83
